The values that follow are results of earlier work, collected in patent publication US20130267526A1, “HETEROCYCLIC COMPOUNDS AND THEIR USES” (Amgen, Inc., priority 2010, published 2013).

Chains of the proteins cited; added tags and fusions are not shown. Lines headed by an entry give the natural chain unless they say otherwise; changes in a name come on top.
UniProt P42338: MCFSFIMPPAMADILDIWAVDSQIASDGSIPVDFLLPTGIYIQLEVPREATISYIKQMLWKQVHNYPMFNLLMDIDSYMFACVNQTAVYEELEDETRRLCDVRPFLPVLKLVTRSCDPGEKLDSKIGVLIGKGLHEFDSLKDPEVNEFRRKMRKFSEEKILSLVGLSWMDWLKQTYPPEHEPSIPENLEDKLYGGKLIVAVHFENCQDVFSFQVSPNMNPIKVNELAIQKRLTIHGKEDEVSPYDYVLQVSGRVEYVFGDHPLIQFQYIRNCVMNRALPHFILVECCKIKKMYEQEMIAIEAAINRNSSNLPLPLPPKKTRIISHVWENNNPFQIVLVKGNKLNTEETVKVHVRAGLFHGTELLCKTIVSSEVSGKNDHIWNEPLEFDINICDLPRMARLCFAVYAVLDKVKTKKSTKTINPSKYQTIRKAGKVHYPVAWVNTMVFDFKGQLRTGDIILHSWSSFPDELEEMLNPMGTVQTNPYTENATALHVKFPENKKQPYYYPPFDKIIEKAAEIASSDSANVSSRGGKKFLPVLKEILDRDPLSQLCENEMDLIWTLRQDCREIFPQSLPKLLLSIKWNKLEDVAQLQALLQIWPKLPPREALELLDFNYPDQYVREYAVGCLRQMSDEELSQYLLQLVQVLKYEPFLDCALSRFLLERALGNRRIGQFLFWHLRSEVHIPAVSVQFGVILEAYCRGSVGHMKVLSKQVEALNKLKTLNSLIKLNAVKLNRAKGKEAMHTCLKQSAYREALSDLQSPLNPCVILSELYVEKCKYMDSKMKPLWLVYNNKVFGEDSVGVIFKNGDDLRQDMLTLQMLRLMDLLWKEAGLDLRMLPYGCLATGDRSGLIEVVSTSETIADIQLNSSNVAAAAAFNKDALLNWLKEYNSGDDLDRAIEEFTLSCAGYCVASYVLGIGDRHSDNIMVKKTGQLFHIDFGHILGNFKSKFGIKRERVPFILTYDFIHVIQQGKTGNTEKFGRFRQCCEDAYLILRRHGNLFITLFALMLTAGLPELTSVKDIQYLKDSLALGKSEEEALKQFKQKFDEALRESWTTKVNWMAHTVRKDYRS

For this series, the target named is p110β (Homo sapiens, UniProt P42338). To be noted: read-out: potency on beta.

Regarding `Cc1cc(C(C)Nc2ccccc2)c2nc(N3CCOCC3)cc(=O)n2c1` (stereo not shown) [TGX-221], the IC50 is 7 nM.
